{
  "sequences": {"note": "The chains behind the UniProt entries cited, without tags or fusion partners. Residues count along the entry.", "UniProt P08637, 17-208": "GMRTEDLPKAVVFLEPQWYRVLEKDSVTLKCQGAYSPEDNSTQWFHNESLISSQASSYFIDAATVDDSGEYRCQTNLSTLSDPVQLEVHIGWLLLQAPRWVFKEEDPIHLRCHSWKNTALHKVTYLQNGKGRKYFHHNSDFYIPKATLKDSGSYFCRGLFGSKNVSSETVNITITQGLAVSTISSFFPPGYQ"},
  "source": "paper PMC9730901",
  "molecular_target": "herceptin",
  "experiment": "SPR; Biacore T200, CM5 chip; protein L amine-coupled (about 300 RU); antibodies (6 nM) captured on protein L; FcγRIa, FcγRIIa, FcγRIIIa injected at 1.66, 5, 15 nM, single-cycle, 60 s association, 600 s dissociation, HBS-EP, 22 °C",
  "data": [
    {"substance": "recombinant FcγRIIIa (from UniProt P08637 17-208) (receptor)", "values": [
      {"measurement": "binding response (RU)", "result": 9, "unit": "RU"}
    ]}
  ]
}
